## Yeast mating assay B: variants of the scFv Ab-14

Values reported by Li et al. 2023, doi:10.1038/s41467-023-39022-2 (FLAb copy).

Binding partner: SARS-CoV-2 spike HR2 peptide, sequence PDVDLGDISGINAS.

Each scFv is VH, a (GGGGS)3 linker, VL, as in the parent Ab-14, and differs from it in the CDRs of the light chain only.
VH: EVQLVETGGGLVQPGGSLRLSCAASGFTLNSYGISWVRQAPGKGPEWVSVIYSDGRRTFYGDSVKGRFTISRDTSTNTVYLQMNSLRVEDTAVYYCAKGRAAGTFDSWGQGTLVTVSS
VL: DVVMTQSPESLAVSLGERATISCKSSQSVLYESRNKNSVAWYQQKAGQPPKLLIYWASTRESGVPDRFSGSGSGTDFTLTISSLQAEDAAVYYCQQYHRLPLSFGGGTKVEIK

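Phage display of a naive human antibody library on the peptide gave the parent. These sequences belong to a second round, designed from the earlier measurements on random variants of the parent. Several design methods are mixed in this list. Affinity was read by AlphaSeq, a pooled yeast mating assay with surface-displayed partners. After mating in shaken culture at 30 °C for 16 h, diploids were selected and their barcode pairs sequenced. Read counts were normalised to the haploid input and turned into Kd by a linear fit to BCL2-family pairs of known affinity, for each replicate. Mating was done six times.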

Each variant is given by its three light chain CDRs, as the data file delimits them; those of the parent are KSSQSVLYESRNKNSVA, WASTRES, QQYHRLPLS. Variants here have more than six changes. Kd is apparent (estimated from mating counts) and averaged on the log scale over replicates with a signal. Smaller is tighter. A pair that was not seen in any replicate is written "nd"; this usually means weak binding, but a binder can also be missed. Order: sorted from the lowest average up, undetected variants last. Empty control strains, which show no peptide, gave a signal in 4% of pairings with all light chain designs; the median was 430 nM and 95% of these signals were weaker than 38 nM. No background was subtracted.

With KLSCSQDYWSRNTNSVA | GASTRES | QQYHRLPLS the result was 480 pM (6 of 6 replicates). The variant TISDLMGHVSKQTHNVA | DQNTRND | QQYNRLPLS showed 590 pM (6 of 6 replicates). The variant KVKQSWLYESRMSNNVA | NASLRES | QQYHRLPLS gave 710 pM (6 of 6 replicates). The variant KVSMLDDGGDRNKNSVA | HASTRES | QQYHRLPLS gave 870 pM (6 of 6 replicates). The variant KFQQWWLYESRMQNNVA | NASLRES | QQYHRLPLS gave 1.2 nM (6 of 6 replicates).

The variant HLGGTMTWESKAKNSVA | QSNTRAE | QQYHRLPLS showed 1.3 nM (6 of 6 replicates). The variant KIGMTLNQLQEKKNNVA | DLVTREN | QQYHRLPLS gave 1.5 nM (6 of 6 replicates). The variant NIRGVEFESAMHGNSVA | GVDLREA | QQYFRLPLH gave 1.6 nM (6 of 6 replicates). The variant TISQSAQMESHNKNSVA | DLSVRGS | QQYHRLPLS gave 1.7 nM (6 of 6 replicates). With HITDLHYFGNEGEWNIA | DKNISVM | QQYFRLPLS the result was 2.5 nM (6 of 6 replicates).

For NVGQLMDGEQRNKNSVA | HQSTRED | QHYHRLPLS, the assay gave 2.8 nM (6 of 6 replicates). With KSPGSNLYESRNLNSVA | KASTRLQ | QQYHRLPLS the result was 3.0 nM (6 of 6 replicates). The variant HMSTLTLGGMRQRNSVA | QMTTREN | QQYDRLPLS showed 3.1 nM (6 of 6 replicates). The variant HIDTANRGEDMKQDPIA | QADHREQ | QQYFQLPLI showed 3.4 nM (6 of 6 replicates). The variant TLYGLSNSMSIKKDSVA | EMTTREE | QQYDRLPLV gave 3.7 nM (6 of 6 replicates).

For KLYQSQLYDSRNKNSVA | QAHHREV | QQYHRLPLS, the assay gave 3.8 nM (6 of 6 replicates). The variant HISQMWMLESKNLNNVA | EESTRED | QSYFRLPLS gave 4.3 nM (6 of 6 replicates). The variant KVSDMMAFLSRNRNSVA | DNSTRGS | QQYNRLPLS gave 4.3 nM (6 of 6 replicates). The variant KLMQWQLYESRNKNNVA | SASTREM | QQYHRLPLS showed 5.1 nM (6 of 6 replicates). With QIFFDDFEYGIESQNIA | QGSMREV | QQYARLPLV the result was 5.1 nM (6 of 6 replicates).

With KLSQSVMFMSGVYNSVA | QMSTRAE | QQYHRLPLS the result was 5.1 nM (6 of 6 replicates). With MLSDLVKMGVRETNSVA | DNSTRGS | QQYDRLPLS the result was 6.2 nM (6 of 6 replicates). For KLSQSVLFWGHAINSVA | EMATREN | QQYDRLPLS, the assay gave 7.4 nM (6 of 6 replicates). The variant SITQLVGWGQRNKNSVA | QMETREN | QQYDRLPLS showed 7.5 nM (6 of 6 replicates). The variant HISYSMQHLSKNKNSVA | NQQTREA | QQYHRLPLS gave 9.1 nM (6 of 6 replicates).

With KISQMSTIESITHNSVA | QTSKRES | QQYDRLPLS the result was 9.9 nM (6 of 6 replicates). The variant KLSMSYRFESENKNSIA | ELVTRMS | QQYHRLPLS showed 11 nM (5 of 6 replicates). The variant VFQQQWDGHTDTNNSVA | NVDEKME | QQYYRLPLL gave 15 nM (6 of 6 replicates). With KIGMTLNQMYEKANNVA | DLVEREN | QQYHRLPLS the result was 16 nM (6 of 6 replicates). For RINTALKTVDDHYSNVA | EQRLTSE | QQYFRLPLS, the assay gave 23 nM (6 of 6 replicates).

For KLSLMLNDMDARMWNVA | EGNQLKA | QDYHRLPLH, the assay gave 37 nM (6 of 6 replicates). For NLGGEDANDNRGMMAVA | DVSTVGE | QHYNRLPLS, the assay gave 37 nM (6 of 6 replicates). The variant KLSGLMASSKFAKDNVA | ENNTREY | QQYDRLPLS gave 200 nM (3 of 6 replicates). The variant VLSDTIENMASRADNIA | DETETSY | QQYYRLPLS showed 220 nM (3 of 6 replicates). For SLSMNQGEESSHWENVA | QGDIAEN | QDYSRLPLI, the assay gave 360 nM (4 of 6 replicates).

The variant MISQLFNMGQFAINSVA | QASVRNE | QQYDRLPLM gave 470 nM (6 of 6 replicates). The variant KINGVLINFGEDWNAIA | QENLSNL | QQYFHLPLS gave nd (0 of 6 replicates). With MISQLMNMGSFAINSVA | QAQTRNE | QQYDRLPLT the result was nd (0 of 6 replicates). The variant RLHEYFYMPENWNNSIA | EKDYRAR | QQYYRLPLA gave nd (0 of 6 replicates).

The 3 strongest on average among those seen in every replicate, once more:

CDR-L1	CDR-L2	CDR-L3	Kd	replicates with signal
KLSCSQDYWSRNTNSVA	GASTRES	QQYHRLPLS	480 pM	6/6
TISDLMGHVSKQTHNVA	DQNTRND	QQYNRLPLS	590 pM	6/6
KVKQSWLYESRMSNNVA	NASLRES	QQYHRLPLS	710 pM	6/6

A sequence measured in both rounds can read differently, since the two assays cover different ranges. The parent sequence was in this pool as ten entries: three were never detected, three once, and four in most replicates, with averages from 2.2 nM to 240 nM. In the paper, a design with two or fewer of six values counts as a poor binder.